The target of the experiment is T1, recombinant collectin-11 (rCL-11), CHO-expressed (human), Q9BWP8.
T1 chain: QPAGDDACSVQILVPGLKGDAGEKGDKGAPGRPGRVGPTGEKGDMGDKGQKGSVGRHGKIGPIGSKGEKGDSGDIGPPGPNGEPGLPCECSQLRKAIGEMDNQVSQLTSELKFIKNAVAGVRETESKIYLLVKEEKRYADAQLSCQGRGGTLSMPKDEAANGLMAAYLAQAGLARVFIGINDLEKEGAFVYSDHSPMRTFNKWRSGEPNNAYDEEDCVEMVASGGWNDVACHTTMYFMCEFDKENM
Description: SDS-PAGE; molecular mass of rCL-11 on SDS gels, 105 kDa, taken as a trimer of polypeptides. The note with it: remark: other sources report otherwise.

B1: recombinant collectin-11 (rCL-11), CHO-expressed, Q9BWP8 26-271 (natural protein)
chain: QPAGDDACSVQILVPGLKGDAGEKGDKGAPGRPGRVGPTGEKGDMGDKGQKGSVGRHGKIGPIGSKGEKGDSGDIGPPGPNGEPGLPCECSQLRKAIGEMDNQVSQLTSELKFIKNAVAGVRETESKIYLLVKEEKRYADAQLSCQGRGGTLSMPKDEAANGLMAAYLAQAGLARVFIGINDLEKEGAFVYSDHSPMRTFNKWRSGEPNNAYDEEDCVEMVASGGWNDVACHTTMYFMCEFDKENM
What is called stoichiometry N is the number of molecules, sites or subunits per partner or assembly. For the molecule B1, the stoichiometry N came to 3.

Source of the values: paper PMC12582335.
